{
  "sequences": {"note": "The chains behind the UniProt entries cited, without tags or fusion partners.", "UniProt P06276, whole entry": "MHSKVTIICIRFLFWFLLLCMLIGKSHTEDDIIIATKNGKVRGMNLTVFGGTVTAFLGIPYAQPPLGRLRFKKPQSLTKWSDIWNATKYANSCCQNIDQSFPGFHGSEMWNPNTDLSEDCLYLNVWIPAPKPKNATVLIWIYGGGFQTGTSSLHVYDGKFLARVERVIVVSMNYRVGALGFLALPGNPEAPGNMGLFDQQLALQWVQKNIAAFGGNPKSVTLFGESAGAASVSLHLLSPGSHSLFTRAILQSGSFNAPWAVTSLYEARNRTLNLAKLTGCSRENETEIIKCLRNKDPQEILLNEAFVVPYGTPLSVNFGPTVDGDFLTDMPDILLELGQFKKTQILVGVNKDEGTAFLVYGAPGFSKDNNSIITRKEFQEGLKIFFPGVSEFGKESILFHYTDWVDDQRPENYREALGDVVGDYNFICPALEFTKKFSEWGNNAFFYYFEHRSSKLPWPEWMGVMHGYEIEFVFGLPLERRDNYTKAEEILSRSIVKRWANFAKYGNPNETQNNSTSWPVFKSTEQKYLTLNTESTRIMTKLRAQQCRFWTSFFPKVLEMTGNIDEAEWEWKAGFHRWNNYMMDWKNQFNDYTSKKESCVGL"},
  "source": "ChEMBL document CHEMBL4665668",
  "about": "“Design and development of molecular hybrids of 2-pyridylpiperazine and 5-phenyl-1,3,4-oxadiazoles as potential multifunctional agents to treat Alzheimer's disease” (Eur J Med Chem, 2019)",
  "molecular_target": "Cholinesterase (Homo sapiens, UniProt P06276)",
  "assay": "Inhibition of human serum BChE using butyrylthiocholine iodide as substrate preincubated for 10 mins followed by substrate addition by Ellman's method",
  "assay_type": "cell-free",
  "data": [
    {"smiles": "CCN(C)C(=O)Oc1cccc([C@H](C)N(C)C)c1", "note": "[RIVASTIGMINE]", "values": [
      {"measurement": "IC50", "result": 1220, "unit": "nM"}
    ]}
  ]
}
